Bioassay records deposited in PubChem BioAssay by National Center for Advancing Translational Sciences (NCATS).
Sampled rows, rich in hits. Any-hit rate of the full collection: about 3.7%.
Nrf2 ARE act – Nrf2 pathway activation. AID 624171. AREc32 ARE-luciferase reporter (MCF7-derived line), luminescence, 24 h. hit rate 0.31% among 410,000. Potency, µM (series often up to 46.1 µM), without a hit: top-dose activation, hits mostly activators; note: potency is the fitted concentration of half-maximal effect; % of control where 0% means no effect; nearly all actives have a fitted effect of over 65% in size
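Nrf2 activation is followed as ARE-luciferase induction in the AREc32 line after one day of compound treatment; luminescence is read with Steady-Glo.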
Nrf2 block – Nrf2 pathway inhibition. A549 ARE-Fluc reporter, luciferase luminescence, 18-24 h. Potency, µM (doses to about 46 µM), for the others: at the top dose activity change, negative = inhibition, actives largely listed as inhibitors. hit rate 2.1% among 360,000. AID 504444; note: potency is the fitted concentration of half-maximal effect; % is set by controls: 0 for no effect and ±100 for the full control effect; nearly all actives have a fitted effect of over 60% in size
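A549 ARE_Fluc cells (5000/well, 5% FBS OPTI-MEM) pre-incubated 2 h, then treated with compounds 18-24 h at 37C/5% CO2 in concentration-response. CellTiter-Fluor viability read first; BugLite luciferase luminescence after 15 min at room temperature gives Nrf2 activity.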
TCR act – activates T cell receptor signaling; AID 504894; 330,000 tested, under 10 active; Potency, µM (series often up to 9.22 µM), without a hit: top-dose activation of IL-2 secretion, usual class: activators; primary human leukocytes, anti-CD3, IL-2 HTRF, 48 h; note: % of control where 0% means no effect
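Primary human leukocytes receive a-CD3 beads and test compound and are incubated 48 hr. Secreted IL-2 is then assayed by HTRF, measuring 665nm acceptor emission after 320nm excitation of the europium donor.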
ClpP mod – qHTS Assay for Activators of ClpP | ATP-dependent Clp protease proteolytic subunit (Bacillus subtilis (strain 168)), P80244 | purified B. subtilis ClpP, FRET peptide cleavage, 20 min | Potency, µM (highest dose often 57.5 µM), for inactives: at the top dose activity change, negative = active | hit rate 1.9% among 340,000; active = well fitted falling curve with a large enough effect; inconclusive = small, poorly fitted or top-dose-only effect; inactive = no such curve, though single readings can be large or run the other way; note: potency is the fitted concentration of half-maximal effect; the source files actives as falling curves though it sought activators and does not explain the sign; nearly all actives have a fitted effect of over 65% in size
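FRET quenching reversal measured ClpP activation: 10 microg/mL B. subtilis ClpP at pH 8 with the FRET-FV decapeptide, read at 430 nm after 320 nm excitation. The 20-min minus 0-min signal was scaled between DMSO/no-enzyme wells and ADEP (5.8 microM final).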
miR-21 reporter – miR-21 reporter, rising signal. 340,000 tested, under 10 active. Potency, µM (highest dose often 38.3 µM), for the others: at the highest dose reporter change, positive = more light. HeLa miR-21 FLuc reporter, luciferase, 48 h. AID 2288; active = well fitted rising curve with a large enough effect; inconclusive = small, poorly fitted or top-dose-only effect; inactive = no such curve, though single readings can be large or run the other way;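 further: % of control where 0% means no effect; miR-21 action dims this reporter so a rising signal means less miR-21 action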
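HeLa cells stably expressing CMV-driven firefly luciferase with a downstream miR-21 binding sequence, endogenously expressing miR-21, were treated with titrations (up to about 40uM final) for 48 hours at 37 degree Celsius. Luciferase luminescence was read after lysis.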
A549 viability – kills or reduces viability of A549 cells in Nrf2 counter-screen; A549 ARE-Fluc cells, CellTiter-Fluor viability, 18-24 h; Potency, µM (titrated, usually from 46 µM), without a hit: top-dose activity change, negative = cytotoxicity, most hits filed as inhibitors; hit rate 0.16% among 390,000; note: potency is the fitted concentration of half-maximal effect; % is set by controls: 0 for no effect and ±100 for the full control effect
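Cytotoxicity counterscreen: CellTiter-Fluor fluorescence was measured in A549 ARE_Fluc cells after 18-24 h of compound exposure in a concentration series. The subsequent BugLite luminescent read reports ARE-luciferase activity.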
Numbers without * were called inactive; ? = inconclusive; · = no result given; [ ] = another dose, or the depositor's remark. Unless noted, calls come from the whole dose curve; as a rule, active = well fitted curve in the direction sought with a large enough effect; inconclusive = small, poorly fitted or top-dose-only effect, or another doubt; inactive = no such curve, though single readings can be large; an effect the other way counts as inactive or inconclusive.

item | smiles | Nrf2 ARE act | Nrf2 block | TCR act
1 | O=C(Nc1ccccc1)c1sccc1Oc1ccc([N+](=O)[O-])cc1F | 0% | ? | -7%
2 | COCCOc1cc(NC(=O)c2sccc2Oc2ccc([N+](=O)[O-])cc2F)c(Cl)cc1Cl | -1% | ? | 0%
3 | Cc1cc(C)cc(NC(=O)Nc2cccnc2)c1 | 4% | 8% | -1%
4 | Cc1ccc(NC(=O)Nc2cccnc2)cc1NC(=O)Nc1cccnc1 | 0% | 18µM* | 10%
5 | Cc1cc(C)cc(C(=O)Nc2ccc(NC(=O)c3cccs3)cc2)c1 | 4% | 18µM* | 1%
6 | O=C(Nc1cccc(NC(=O)c2cccs2)c1)c1cccnc1 | 13µM* | 1% | 2%
7 | O=C(Nc1ccc2nsnc2c1)c1cccs1 | 8.9µM* | 5% | -4%
8 | O=C(Nc1cccc(NC(=O)c2cccnc2)c1)c1cccnc1 | 4% | -16% | 6%
9 | Cc1cc(C)nc(NC(=O)c2cccs2)n1 | 7% | 13% | -4%
10 | O=C(Nc1ccncc1)c1cccs1 | 1% | 8% | 0%

item | ClpP mod | miR-21 reporter | A549 viability
1 | · | 2% | ?
2 | 14µM* | 10% | -11%
3 | 0% | -26% | 1%
4 | -1% | -1% | -16%
5 | 10% | 12% | ?
6 | · | -1% | -1%
7 | -2% | -15% | -6%
8 | -1% | 0% | -8%
9 | -1% | -13% | -1%
10 | 0% | 7% | -5%

Following part
item | smiles | Nrf2 ARE act | Nrf2 block | TCR act
11 | Cc1nc(NC(=O)c2cccs2)ccc1Br | 16µM* | ? | 5%
12 | Cc1nc(-c2cccc(NC(=O)c3cccs3)c2)cs1 | ? | -13% | -4%[46.1 µM]
13 | O=C(NCc1ccco1)Nc1ccc2nsnc2c1 | 22µM* | 4% | -8%
14 | O=C(NCc1ccco1)Nc1ccc(Br)cc1 | 6% | -16% | 3%
15 | O=C(Nc1ccc(O)c(-c2nc3ccccc3s2)c1)c1cccs1 | ? | -2% | -9%[46.1 µM]
16 | O=C(Nc1cccc2nsnc12)c1cccs1 | 7.9µM* | ? | 2%
17 | O=C(Nc1cccc2cccnc12)c1cccs1 | · | ? | ·
18 | O=C(Nc1cccc(-c2csc(-c3ccccc3)n2)c1)c1cccs1 | 4% | 16µM* | -5%
19 | Cc1cc(C(=O)COC(=O)Cc2ccc(Br)cc2)c(C)n1C | -1% | 11% | 2%
20 | O=C(COC(=O)C(CO)NS(=O)(=O)c1ccc(Br)cc1)Nc1ccc2c(c1)OCCO2 (configuration not stated) | 1% | 10% | -2%

item | ClpP mod | miR-21 reporter | A549 viability
11 | · | -24% | 3%
12 | -5% | -30% | -12%
13 | ? | -1% | -13%
14 | -4% | -38% | -19%
15 | 28µM* | -4% | 3%
16 | ? | -30% | -11%
17 | · | · | 2%
18 | -26% | 12% | 0%
19 | 0% | · | 2%
20 | -2% | · | 0%

Next part.
item | smiles | Nrf2 ARE act | Nrf2 block | TCR act
21 | Cc1ccc(S(=O)(=O)N2C[C@H]3C(=O)C[C@@H](c4ccccc4)N(S(=O)(=O)c4ccc(C)cc4)[C@H]3C[C@H]2c2cccc(C)c2)cc1 | 0% | · | ·
22 | Cc1ccc2c(CC(=O)N(Cc3ccc(N(C)C)cc3)Cc3ccco3)coc2c1C | 4% | 23µM* | ·
23 | CN(C)c1ccc(CN(Cc2ccco2)C(=O)c2ccco2)cc1 | 2% | -17% | -1%
24 | O=C(OCC(=O)c1c[nH]c2ccccc12)c1cc2ccccc2cc1O | 11% | -9% | 4%[46.1 µM]
25 | Cc1[nH]c2ccccc2c1C(=O)COC(=O)c1ccccc1O | 4% | -4% | 0%
26 | CCOC(=O)c1ccccc1NC(=O)c1ccccc1NS(C)(=O)=O | 2% | 20% | -1%
27 | CCOC(=O)c1ccccc1NC(=O)c1cn(-c2ccc(C)c(C)c2)c(=O)c2ccccc12 | 0% | ? | -2%[46.1 µM]
28 | CCOC(=O)c1ccccc1NS(=O)(=O)c1ccccc1 | -1% | 23µM* | ·
29 | CCOC(=O)c1ccccc1NC(=O)c1ccccc1SC | 0% | -13% | 0%
30 | Cc1nc2sc(C#N)c(N)c2c2c1CCCC2 | 0% | -17% | -1%

item | ClpP mod | miR-21 reporter | A549 viability
21 | 0% | · | ·
22 | -17% | 5% | -5%
23 | -3% | -1% | -2%
24 | 20µM* | -22% | -2%
25 | 3.5µM* | · | -11%
26 | 35µM* | -3% | -6%
27 | 13µM* | -1% | 5%
28 | -5% | -3% | ?
29 | -1% | 8% | -9%
30 | -12% | -23% | -16%

(more compounds)
item | smiles | Nrf2 ARE act | Nrf2 block | TCR act
31 | N#Cc1sc2nc(N3CCCCC3)c3c(c2c1N)CCCC3 | 7% | -2% | 2%[46.1 µM]
32 | COc1cccc(-n2c(SCC(N)=O)nc3c(oc4ccccc43)c2=O)c1 | 1% | 4% | ·
33 | CN(C)c1ccc(/C=C/c2cc3ccccc3cn2)cc1 | · | · | ·
34 | C(/C=C/c1ccccn1)=C\c1ccccc1 | 13µM* | ? | 10%
35 | Cc1nc(/C=C/c2ccccc2)cc(/C=C/c2ccccc2)n1 | 4% | 1% | -1%
36 | C(=C\c1ccccn1)/c1ccncc1 | 0% | 11% | 7%
37 | C(=C\c1cc(/C=C/c2ccccc2)ncn1)/c1ccccc1 | 4% | ? | 0%
38 | Cc1ccccc1-n1ccnc1SCC(=O)O | 0% | 10% | -5%
39 | Cc1cccc(-n2ccnc2SCC(=O)O)c1C | -1% | 4% | 3%
40 | CCNC(=S)Nc1ccc(Cl)c([N+](=O)[O-])c1 | 3% | 18µM* | 10%

item | ClpP mod | miR-21 reporter | A549 viability
31 | 28µM* | -30% | 3%
32 | -2% | 2% | -9%
33 | -4% | · | ·
34 | -6% | · | -8%
35 | 14µM* | -28% | -7%
36 | -2% | -38% | -3%
37 | 35µM* | -39% | 6%
38 | 0% | 0% | 1%
39 | 10µM* | -2% | -1%
40 | · | 12% | ?

Record cards (already shown). Screens in order: Nrf2 ARE act, Nrf2 block, TCR act, ClpP mod, miR-21 reporter, A549 viability
`N#Cc1sc2nc(N3CCCCC3)c3c(c2c1N)CCCC3` as listed: 7%, -2%, 2%[46.1 µM], 28µM*, -30%, 3%
`Cc1nc(/C=C/c2ccccc2)cc(/C=C/c2ccccc2)n1` as listed: 4%, 1%, -1%, 14µM*, -28%, -7%
`C(/C=C/c1ccccn1)=C\c1ccccc1` as listed: 13µM*, ?, 10%, -6%, ·, -8%
`CN(C)c1ccc(/C=C/c2cc3ccccc3cn2)cc1` as listed: ·, ·, ·, -4%, ·, ·
`COc1cccc(-n2c(SCC(N)=O)nc3c(oc4ccccc43)c2=O)c1` as listed: 1%, 4%, ·, -2%, 2%, -9%

Going on with the list.
item | smiles | Nrf2 ARE act | Nrf2 block | TCR act
41 | CN(Cc1ccccc1)c1nc(-c2ccc([N+](=O)[O-])cc2)nc2ccccc12 | 0% | ? | 0%
42 | O=[N+]([O-])c1ccc(-c2nc(C(Cl)Cl)c3ccccc3n2)cc1 | 3% | 15µM* | -6%
43 | Cc1cccc(Cn2c(SCc3ccc(C(=O)N4CCCCCC4)cc3)nc3ccncc32)c1 | -1% | 23µM* | ·
44 | O=C(c1ccc(CSc2nc3ccncc3n2Cc2ccccc2)cc1)N1CCCCCC1 | 1% | ? | ·
45 | CCOc1cc(Br)c(CN2C(=O)NC3(CCCCCC3)C2=O)cc1OCC | 3% | 21µM* | -12%
46 | O=C(O)CCC(=O)Nc1ccccc1C(=O)NCCc1ccccc1 | 3% | 26% | -6%[46.1 µM]
47 | CC(C)c1ccccc1NC(=O)COC(=O)c1c2c(nc3ccccc13)CCN(Cc1ccccc1)C2 | -2% | ? | 6%[46.1 µM]
48 | Cc1c(Cl)cccc1NC(=O)COC(=O)c1c2c(nc3ccccc13)CCN(Cc1ccccc1)C2 | 0% | 21µM* | 9%[46.1 µM]
49 | COc1cccc(NC(=O)COC(=O)c2c3c(nc4ccccc24)CCC(C)C3)c1 (configuration not stated) | -3% | 16µM* | 1%

item | ClpP mod | miR-21 reporter | A549 viability
41 | 1% | -5% | -6%
42 | · | -5% | ?
43 | 1% | 1% | 0%
44 | -4% | -8% | -11%
45 | · | 18% | ?
46 | 14µM* | -56% | -4%
47 | -15% | 27% | -18%
48 | -10% | -1% | ?
49 | -4% | 25% | ?
